Test results from publication PMC9502466, “Identification of SARS-CoV-2 Main Protease Inhibitors from a Library of Minor Cannabinoids by Biochemical Inhibition Assay and Surface Plasmon Resonance Characterized Binding Affinity” (Molecules, 2022).

Molecular target: SARS-CoV-2 M^pro (Severe acute respiratory syndrome coronavirus 2, UniProt P0DTD1)
Assay type: biochemical
Settings: 10 µM

Question: How did the “inhibition rate of SARS-CoV-2 M^pro activity” value turn out when O=C[C@H](C[C@@H]1CCNC1=O)NC(=O)[C@H](CC1CCCCC1)NC(=O)c1cc2ccccc2[nH]1 [M^pro 11a, reference compound] was run?
Answer: > 98%
